According to PubChem BioAssay AID504845 (National Center for Advancing Translational Sciences (NCATS), 2011):
The entries are a selection whose mix differs from that of the whole data set. Records with an inconclusive call do not appear. Some salts or complexes appear as unconnected parts, following the source record. Calls of active or inactive are those of the source. The call rests on the fitted dose curve; in most records, active means well fitted inhibition curve with a large enough effect; inconclusive means small, poorly fitted or top-dose-only effect; inactive means no such curve, though single readings can be large or run the other way.

The chains behind the UniProt entries cited, without tags or fusion partners.
UniProt P49798, whole entry: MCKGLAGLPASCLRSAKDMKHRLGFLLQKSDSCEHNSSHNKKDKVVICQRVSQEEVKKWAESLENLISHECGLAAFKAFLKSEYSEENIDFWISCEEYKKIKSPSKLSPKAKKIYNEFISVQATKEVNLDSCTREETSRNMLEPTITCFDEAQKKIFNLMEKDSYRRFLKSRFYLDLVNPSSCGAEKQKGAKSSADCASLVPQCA

Target: Regulator of G-protein signaling 4 (Homo sapiens) (UniProt P49798)
Test: Inhibitors of Regulator of G Protein Signaling (RGS) 4: qHTS; further: nearly all actives have a fitted effect of over 75% in size
Details: Transcreener GDP fluorescence polarization, RGS4-accelerated GTP hydrolysis; at 114 µM (top of the series) unless noted
Source text: G-protein-coupled receptors (GPCRs) are well-established targets for drug discovery and development. Members of the "regulator of G-protein signaling" (RGS)-protein superfamily have recently emerged as critical modulators of specific GPCR signaling pathways. […] Combining specific RGS domain inhibitors with existing GPCR agonists should potentiate cellular responses and could also increase the specificity of action of existing therapeutics. Small molecule modulators of RGS domain activity should also have clinical utility in inhibiting or potentiating the actions of endogenous GPCR agonists. In particular, the diversity of RGS proteins with highly localized and dynamically regulated distributions in the human brain makes this family of proteins attractive targets for pharmacotherapy of central nervous system (CNS) disorders such as Parkinson's disease, schizophrenia, and anxiety.
This assay was used to screen the NIH Molecular Libraries Small Molecule Repository (MLSMR) in order to identify a small molecule that inhibits RGS4.
NIH Chemical Genomics Center [NCGC]
NIH Molecular Libraries Probe Centers Network [MLPCN]
Assay Submitter (PI): David Siderovski, University of North Carolina Chapel Hill (School of Medicine)
Two microliters of 500nM (2x working concentration) is dispensed into black medium-binding solid-bottom Kalypsys plates. Then with the Kalypsys pintool 23nl of control and compounds are transferred; the control compound is […] CCG-4986 (working concentration). After a 10 minute incubation at room temperature 2ul of antibody is added with the Kalypsys dispenser; (-)RGS4/Transcreener GDP solution in columns 3 and 4 which consisted of 10nM (2x working concentration) Alexa633, 20uM GTP, and 20 ug/ml GDP antibody and (+)RGS4/Transcreener GDP solution in columns 1,2, and 5 to 48 which consists of 900nM RGS4 (2x working concentration), 10nM Alexa633, 20 ug/ml GDP antibody. The plate is centrifuged at 1000 RPM for 15 seconds to remove any possible bubbles and then incubated for 5 minutes at ambient room temperature. An initial fluorescent polarization read (620 nm/688 nm) is performed on the Envision before the plate is incubated for 90 minutes at 30 deg C at a relative humidity of 80%. The plate is once more centrifuged at 1000 RPM for 15 seconds and another Envision fluorescent polarization (620 nm/688 nm) read is carried out.
On the % scale 0 is the no-effect control and ±100 the full control effect.

Structure (SMILES)	activity change, negative = inhibition
CCC(CO)(C(=O)OC1CN2CCC1CC2)c1ccccc1 (stereo not given)	inactive: 11.7%
COc1cc(OC)cc(C(=O)NCC2(N3CCOCC3)CCCCC2)c1	inactive: -22.8%
COc1cc(C(=O)NCC2(N3CCOCC3)CCCCC2)cc(OC)c1OC	inactive: 16.1%
COc1cccc(C(=O)N(c2cc(C)cc(C)c2)C2CCN(C(=O)OC(C)(C)C)CC2)c1	inactive: 2.69%
CN1CCC(Nc2ccc(Cl)cc2)CC1	inactive: 23.3%
CCOc1ncccc1C(=O)NCC1(N2CCOCC2)CCCCC1	inactive: -14.6%
CN1CCC(Nc2ccc(F)c(Cl)c2)CC1	inactive: -7.41%
CCCOc1ccc(C(=O)NCC2(N(C)C)CCCCC2)cc1	inactive: -14.1%
CC(C)(C)OC(=O)N1CCC(Nc2ccccc2)CC1	inactive: 3.73%
O=C(O)C1(Nc2ccccc2)CCN(Cc2ccccc2)CC1	inactive: 3.48%
Cc1ccccc1NC1(C#N)CCN(Cc2ccccc2)CC1	inactive: 3.73%
CCN1CCC(Nc2cccc(F)c2)CC1	inactive: 2.03%
O=C(NCC1(N2CCCCC2)CCCCC1)c1ccco1	inactive: 7.16%
CC(C)(C)c1ccc(C(=O)NCC2(N3CCOCC3)CCCCC2)cc1	inactive: 16.6%
CN(C)c1ccc(C(=O)NCC2(N3CCCCC3)CCCCC2)cc1	inactive: -10.9%
Cn1c(=O)[nH]cc(N(CCCl)CCCl)c1=O	inactive: -19.9%
Cc1ccccc1C(=O)NCC1(N(C)C)CCCCC1	inactive: -13.1%
COc1cc(OC)cc(C(=O)NCC2(N3CCCCC3)CCCCC2)c1	inactive: 1.25%
CN(C)C1(CNC(=O)c2ccc(C(C)(C)C)cc2)CCCCC1	inactive: -1.55%
CC(=O)N(c1ccccc1)C1CCNCC1	inactive: -3.41%
Cc1ccc(NC2(C#N)CCN(Cc3ccccc3)CC2)cc1	inactive: 1.03%
Cc1ccc(C(=O)NCC2(N3CCCCC3)CCCCC2)o1	inactive: 21.2%
Fc1ccccc1NC1CCN(Cc2ccccc2)CC1	inactive: -6.83%
c1ccc(CN2CCC(Nc3ccccc3)CC2)cc1	inactive: -18.7%

Structure (SMILES)	activity change, negative = inhibition
O=C(NCC1(N2CCOCC2)CCCCC1)c1ccccc1	inactive: 10.8%
Cc1cc(N(CCCl)CCCl)ccc1C=O	inactive: -12.6%
CCCN1CCC(Nc2cc(OC)cc(OC)c2)CC1	inactive: -13.1%
CN(C)C1(CNC(=O)c2cccc(C#N)c2)CCCCC1	inactive: 18.9%
O=C(NCC1(N2CCOCC2)CCCCC1)c1ccc([N+](=O)[O-])cc1	inactive: 19.3%
CC(C)(C)OC(=O)N1CCC(N(C(=O)c2ccccc2)c2ccc(Cl)cc2)CC1	inactive: -10.9%
N#Cc1ccc(C(=O)NCC2(N3CCCCC3)CCCCC2)cc1	inactive: 9.27%
O=C(NCC1(N2CCOCC2)CCCCC1)c1ccccc1[N+](=O)[O-]	inactive: -3.01%
CCOC(=O)C(CC)C1=NC(C)(C)Cc2ccccc21.O=[N+]([O-])c1cc([N+](=O)[O-])c(O)c([N+](=O)[O-])c1 (stereo not given)	inactive: 15.2%
N/C(=N\O)c1c(N)no[n+]1[O-]	inactive: -15.1%
CCOC(=O)N1CCC(Nc2ccc(C)cc2)CC1	inactive: -5.74%
CCc1cc(C(=O)NCC2(N3CCCCC3)CCCCC2)sc1C	inactive: 2.89%
O=C(OC1CN2CCC1CC2)C1c2ccccc2C=Cc2ccccc21 (stereo not given)	inactive: -15.8%
O=C(O)c1cccc(Nc2c([N+](=O)[O-])cc([N+](=O)[O-])cc2[N+](=O)[O-])c1	inactive: -25%
O=C(NCC1(N2CCOCC2)CCCCC1)c1cc(Br)ccc1Cl	inactive: 0.463%
COc1cc(C(=O)NCC2(N3CCOCC3)CCCCC2)cc(OC)c1C	inactive: 15.8%
COc1ccc(C(=O)NCC2(N3CCOCC3)CCCCC2)cc1OC	inactive: 22.9%
CN1CCC(Nc2cccc(F)c2)CC1	inactive: -11.2%
COc1ccc2c(c1O)-c1c(O)c(OC)cc3c1[C@H](C2)[N+](C)(C)CC3.O=[N+]([O-])c1cc([N+](=O)[O-])c([O-])c([N+](=O)[O-])c1[O-]	inactive: -4.49%
O=C(NCC1(N2CCCCC2)CCCCC1)c1cncc(Br)c1	inactive: 6.07%
O=C(OC1CN2CCC1CC2)c1ccc([N+](=O)[O-])cc1 (stereo not given)	inactive: 6.39%
CCCCOc1ccccc1C(=O)NCC1(N2CCOCC2)CCCCC1	inactive: 5.84%
O=C(NCC1(N2CCOCC2)CCCCC1)c1ccccc1Br	inactive: 13.5%
CCCOc1ccc(C(=O)NCC2(N(C)C)CCCCC2)cc1OC	inactive: -10.5%

Structure (SMILES)	activity change, negative = inhibition
COc1ccc(CN(CCCl)CCCl)cc1Cl	inactive: -16.1%
O=[N+]([O-])c1cc([N+](=O)[O-])c(OC2CCCCC2O)c([N+](=O)[O-])c1 (stereo not given)	inactive: -19%
CN(C)c1cccc(C(=O)NCC2(N3CCCCC3)CCCCC2)c1	inactive: 0.282%
CC(C)c1ccc(NC2CCN(C(=O)OC(C)(C)C)CC2)cc1	inactive: -15.5%
COc1cc(OC)c(C(=O)NCC2(N(C)C)CCCCC2)cc1OC	inactive: 25.1%
O=C(NCC1(N2CCOCC2)CCCCC1)c1cc(F)c(F)cc1Cl	inactive: -11.7%
CCCOc1cccc(C(=O)NCC2(N3CCOCC3)CCCCC2)c1	inactive: 36.8%
O=C(NCC1(N2CCCCC2)CCCCC1)c1cccc(C(F)(F)F)c1	inactive: -12.2%
O=[N+]([O-])c1cc([N+](=O)[O-])c(NCC2CCS(=O)(=O)C2)c([N+](=O)[O-])c1 (stereo not given)	inactive: -8.41%
CN1CCN(CCOC(=O)C(O)(c2ccccc2)c2ccccc2)CC1	inactive: -4.7%
CC(C)c1ccc(C(=O)NCC2(N3CCOCC3)CCCCC2)cc1	inactive: -7.69%
COc1ccc(NC2CCN(C(=O)OC(C)(C)C)CC2)cc1	inactive: 8.34%
COc1cc(C(=O)NCC2(N3CCCCC3)CCCCC2)ccc1OC(F)F	inactive: -13.1%
O=C(NCC1(N2CCOCC2)CCCCC1)c1cc(=O)[nH]c2ccccc12	inactive: 19.5%
O=C(NCC1(N2CCCCC2)CCCCC1)c1ccc(OC(F)F)cc1	inactive: -8.72%
CSc1ccc(C(=O)NCC2(N3CCOCC3)CCCCC2)cc1	inactive: 7.12%
CCOc1ccc(C(=O)NCC2(N3CCOCC3)CCCCC2)cc1	inactive: 7.21%
O=C(NCC1(N2CCCCC2)CCCCC1)c1cccc([N+](=O)[O-])c1	inactive: 21.3%
CCN1CCC(Nc2ccc(Cl)cc2)CC1	inactive: -21.7%
N#CC1(Nc2ccccc2)CCN(CCc2ccccc2)CC1	inactive: -25.8%
CCOC(=O)N1CCC(Nc2cccc(C)c2)CC1	inactive: 4.92%
COc1cc(C(=O)NCC2(N(C)C)CCCCC2)ccc1OC(F)F	inactive: 26.1%
CCOc1ccc(C)cc1CN(CCCl)CCCl	inactive: 8.68%
O=C(NCC1(N2CCOCC2)CCCCC1)c1ccc(Cl)cc1	inactive: 8.03%

Structure (SMILES)	activity change, negative = inhibition
O=C1CCN(Cc2ccccc2)CC1	inactive: 11.2%
O=P1(N(CCCl)CCCl)SCCCS1	inactive: -1.12%
CCCCOc1ccc(C(=O)NCC2(N3CCOCC3)CCCCC2)cc1	inactive: 15.7%
O=C(NCC1(N2CCCCC2)CCCCC1)c1ccc(F)cc1	inactive: 12%
COc1ccc(NC2CCN(CCc3ccccc3)CC2)c(OC)c1	inactive: -7.52%
CCOC(=O)N1CCC(Nc2ccc(F)cc2)CC1	inactive: 10.9%
COc1ccccc1C(=O)NCC1(N2CCOCC2)CCCCC1	inactive: 16.7%
O=C(NCC1(N2CCOCC2)CCCCC1)c1cc2ccccc2o1	inactive: 8.47%
O=C(NCC1(N2CCCCC2)CCCCC1)c1ccc(Cl)nc1	inactive: -17.4%
Cc1cc(C)cc(N(C(=O)c2ccccc2)C2CCN(C(=O)OC(C)(C)C)CC2)c1	inactive: -3.15% [at 56.9 µM]
CCOC(=O)N1CCC(Nc2ccc(OC)cc2)CC1	inactive: -10.9%
N#CC1(Nc2ccccc2)CCN(Cc2ccccc2)CC1	inactive: 42.2%
O=C(NCC1(N2CCCCC2)CCCCC1)c1ccc(Cl)s1	inactive: -5.33%
O=C(OC1CN2CCC1CC2)C1c2ccccc2Oc2ccccc21 (stereo not given)	inactive: -3.66%
COc1ccc(Cl)cc1C(=O)NCC1(N2CCOCC2)CCCCC1	inactive: -11.2%
O=C1C(O)=C([N+](=O)[O-])C(=O)C(O)=C1[N+](=O)[O-]	inactive: 0.487%
O=C(NCC1(N2CCCCC2)CCCCC1)c1ccc(=O)[nH]c1	inactive: -5.37%
O=C(NCC1(N2CCCCC2)CCCCC1)c1cccs1	inactive: 24%
COc1ccc(C(=O)NCC2(N3CCCCC3)CCCCC2)cc1	inactive: -8.34%
CC(C)(C)OC(=O)N1CCC(N(C(=O)c2ccccc2)c2ccc(F)cc2)CC1	inactive: 0.704%
COc1ccc(C(=O)NCC2(N3CCCCC3)CCCCC2)c(OC)c1OC	inactive: 15.2%
CSc1ccccc1C(=O)NCC1(N2CCCCC2)CCCCC1	inactive: 1.4%
Cc1cccc(NC2(C#N)CCN(Cc3ccccc3)CC2)c1	inactive: 0.798%
